Results reported in patent publication US20080227638A1, “Use of abscisic acid to enhance growth control” (priority 2007, published 2008).

What was measured:
Assay type in all cases: in vivo
[1] = test system: Kentucky bluegrass; test: Greenhouse Kentucky bluegrass height and quality, ABA and trinexapac-ethyl (Example 1); details: 200 ppm ABA; 23 days after treatment; visual 0-9 scale
Procedure: (§1) Greenhouse studies were conducted at the Research Farm of Valent BioSciences Corporation (Long Grove, Ill.). Grasses were grown in pots (18 cm in diameter and 18 cm in height) filled with Promix BX (available from Premier Horticulture Inc. Quakertown, Pa.). Grass was irrigated daily by an overhead irrigation system. The irrigation system was set up with multiple Tornado Mist Spray Heads (10 GPH at 40 PSI-Wetted diameter, NDS/Raindrip, Woodland Hills, Calif.). Spray heads were 1-meter apart from each other and 75 cm above grass canopy. Grass was cut with a scissor at 2.5 cm height and fertilizer (1 g/L all purpose fertilizer 20-20-20, available from The Scotts Company, Marysville, Ohio) was applied once per week.
Chemical solutions were prepared with distilled water. Tween 20 (0.05% v/v) was used as an, adjuvant. […]
(§2) When treated with paclobutrazol or uniconazole-P, turfgrass received irrigation within 24 hours after application to flush chemicals to the root zone. […] Turfgrass quality, turfgrass height or clip fresh weight was measured on assigned dates. […] Turfgrass height was measured as the distance between canopy surface and soil. […]
(§3) All experiments were randomized complete block experimental design. Data were analyzed by analysis of variance. […]

[2] = test system: creeping bentgrass; test: Golf course green creeping bentgrass height, clip weight and quality, ABA and uniconazole-P (Example 5); details: 200 ppm ABA; throughout the study (not shown)
Procedure: Field studies were conducted at the nursery green or the practice green at Countryside golf course (Mundelein, Ill.). Both greens were sand based and growing Penncross creeping bentgrass. Grass was managed with typical Illinois golf course management practices.
Chemical solutions were prepared with distilled water. Tween 20 (0.05% v/v) was used as an, adjuvant. Both trinexapac-ethyl (commercial product Primo Maxx, 11.3% active ingredient) and paclobutrazol (commercial product Trimmit 2SC, 22.3% active ingredient) were purchased from Syngenta Crop Protection Inc. (Greensboro, N.C.). Uniconazole-P (commercial product Sumagic, 0.55% active ingredient) was obtained from Valent U.S.A. Corporation (Walnut Creek, Calif.). ABA (90% or 95% active ingredient) was obtained from Lomon BioTechnology Co., Ltd. (Shichuan, China).
When treated with paclobutrazol or uniconazole-P, turfgrass received irrigation within 24 hours after application to flush chemicals to the root zone. After treatment, turfgrasses were arranged in a randomized complete block experimental design. Turfgrass quality, turfgrass height or clip fresh weight was measured on assigned dates. […] Turfgrass height was measured as the distance between canopy surface and soil. […]
as §3

[3] = test system: Kentucky bluegrass; test: Greenhouse Kentucky bluegrass height and quality, ABA and paclobutrazol (Example 2); details: 200 ppm ABA; 7 days after treatment; visual 0-9 scale
Procedure: as §1, with “week. […]” for “week.”
as §2, §3
Kentucky bluegrass sod (unknown variety) was purchased from Deak sod farms, Inc. (Union Grove, Wis.). […] Turfgrass quality was evaluated at 7 days after treatment, and turfgrass height was measured at 7 and 28 days after treatment. […]

S-abscisic acid [ABA]
Quality [1]: 8.0
Effect on turfgrass quality [2]: No effect on turfgrass quality
Turfgrass quality [3]: 8.0
